We go through one compound from US20030109418A1, “Methods for identifying compounds for inhibition of neoplastic lesions, and pharmaceutical compositions containing such compounds” (priority 1999, published 2003).

For this assay, the target named is T1, PDE peak A (PDE5) from SW480 cells (Homo sapiens, UniProt O76074).
T1 construct: endogenous in cells; host or cells: SW480 colon cancer cells, DEAE-Trisacryl M fraction
Nature of the assay: cGMP hydrolysis inhibition, PDE peak A from SW480. The format is biochemical.

As a reminder, the IC50 is the concentration needed to halve the response being measured. Read a low IC50 as inhibition by little substance. `O=C(O)C1CCN(c2nc(NCc3ccc4c(c3)OCO4)c3cc(Cl)ccc3n2)CC1` [Compound E4021] registered an IC50 of 3 nM.
